Laboratory results published in patent publication US11845808B2, “Peptide inhibitors of interleukin-23 receptor and their use to treat inflammatory diseases” (Janssen Biotech, Inc., priority 2020, dated 2023).

What was measured:
Assay type in all cases: in vitro ADME
[1] = Stability in simulated intestinal fluid (SIF); settings: 100 fold dilution of standard SIF concentration, 37° C., 20 μM
Procedure: Studies were carried out in simulated intestinal fluid (SIF) and simulated gastric fluid (SGF) to evaluate gastric stability of the peptide inhibitors of the present invention. In addition, studies were carried out to assess redox stability of the peptide inhibitors of the present invention.
SIF was prepared by adding 6.8 g of monobasic potassium phosphate and 10.0 g of pancreatin to 1.0 L of water. After dissolution, the pH was adjusted to 6.8 using NaOH. DMSO stocks (2 mM) were first prepared for the test compounds. Aliquots of the DMSO solutions were dosed into 6 individual tubes, each containing 0.5 mL of SIF, which is pre-warmed to 37° C. The final test compound concentration was 20 μM. The vials were kept in a benchtop Thermomixer® for the duration of the experiment. At each timepoint (0, 5, 10, 20, 40, 60, or 360 minutes or 24 hours), 1.0 mL of acetonitrile containing 1% formic acid was added to one vial to terminate the reaction. Samples were stored at 4° C. until the end of the experiment. After the final timepoint is sampled, the tubes were mixed and then centrifuged at 3,000 rpm for 10 minutes. Aliquots of the supernatant were removed, diluted 1:1 into distilled water containing internal standard, and analyzed by LCMS/MS. Percent remaining at each timepoint was calculated based on the peak area response ratio of test to compound to internal standard. Time 0 was set to 100%, and all later timepoints were calculated relative to time 0. Half-lives were calculated by fitting to a first-order exponential decay equation using Graphpad.

[2] = Stability in human fecal homogenate; settings: 20% human fecal homogenate, 37° C., 20 μM
Procedure: (§1) Studies were carried out in human or cynomlogus monkey fecal homogenate to evaluate gastrointestinal stability of the peptide inhibitors of the present invention.
(§2) Fecal homogenate (20%) was prepared by adding 4 mL of growth medium (1 liter contains 2 g peptone water powder, 2 g yeast extract, 0.1 g NaCl, 0.04 g KH2PO4, 0.01 g CaCl2·6H2O, 0.01 g MgSO4.7H2O, 2 mL Tween 80, 0.5 g bile salts, 0.5 g L-cysteine HCl, 2 g NaHCO3, and 10 μL Vitamin K, pH adjusted to 6.8, and sterilized by filtration through a 0.22 μm filter) to every gram of feces (pooled freshly collected human or cynomolgus monkey feces). The suspension was vortexed to break up large clumps, and homogenized using a bead mill homogenizer. Centrifuged the homogenate at 2800×g for 15 min. The supernatant is taken out and used for incubations. DMSO stocks (10 mM) were first prepared for the test compounds. Incubations were performed in an anaerobic chamber conditioned at 37° C. Aliquots of the DMSO solutions were dosed into 1.0 mL aliquots of 20% fecal homogenate, which are pre-warmed to 37° C. The final test compound concentration was 20 μM. At each timepoint (0, 20 min, 1, 3, 6, or 24 hours), 100 μL aliquot of each incubation mixture is taken out and added to separate tubes containing 300 μL of 50% acetonitrile/50% methanol and an internal standard to terminate the reaction. Samples were taken out of the anaerobic chamber and stored at 4° C. until the end of the experiment. After the final timepoint is sampled, the tubes were mixed and then centrifuged at 3,000 rpm for 10 minutes. Aliquots of the supernatant were removed, diluted 1:1 into distilled water containing 0.1% formic acid, and analyzed by LC/MS/MS. Percent remaining at each timepoint was calculated based on the peak area response ratio of test to compound to internal standard. Time 0 was set to 100%, and all later timepoints were calculated relative to time 0. Half-lives were calculated by fitting to a first-order exponential decay equation using Graphpad or Excel.

[3] = Stability in cynomolgus monkey fecal homogenate; settings: 20% cynomolgus monkey fecal homogenate, 37° C., 20 μM
Procedure: as §1, §2

Stability in rat plasma = settings: SD rat plasma, 37° C., 20 μM
Procedure: Example 6: Stability of Peptide Inhibitors in Rat Plasma
Peptides of interest (20 μM) were incubated with pre-warmed rat plasma (SD rat, mixed gender pooled, EDTA, filtered through 0.22 μm, BioreclamationIVT) at 37° C. Aliquots were taken at various time points up to 24 hours (e.g. 0, 0.25, 1, 3, 6 and 24 hr), and immediately quenched with 4 volumes of organic solvent (acetonitrile/methanol (1:1) and 0.1% formic acid, containing 1 μM internal standard). Quenched samples were stored at 4° C. until the end of the experiment and centrifuged at 4,000 rpm for 10 minutes. The supernatant were diluted 1:1 with deionized water and analyzed using LC-MS. Percentage remaining at each time point was calculated based on the peak area ratio (analyte over internal standard) relative to the initial level at time zero. Half-lives were calculated by fitting to a first-order exponential decay equation using GraphPad.

Substance	SIF t½ [1] [h]	t½: Human Feces anaerobic [2] [h]	t½: Monkey Feces anaerobic [3] [h]	t½: Rat Plasma EDTA (Stability in rat plasma) [h]
Ac-[(D)Arg]-[Abu]-N-T-[W(7-Me)]-Q-[Cys]-Phe[4-(2-aminoethoxy)]-[2-Nal]-[THP]-E-N-[(D)Leu]-[Sarc]-NH2 [Peptide 101]	>24.0	1.8	8.1	–
Ac-[(D)Arg]-[Abu]-N-T-[W(7-Me)]-[Cit]-[Cys]-Phe[4-(2-aminoethoxy)]-[2-Nal]-[THP]-E-N-H-[Sarc]-NH2 [Peptide 102]	17.9	1.2	4.2	–
Ac-[(D)Arg]-[Abu]-Q-T-[W(7-Ph)]-[Lys(Ac)]-[Cys]-Phe[4-(2-aminoethoxy)]-[2-Nal]-[a-MeLys]-[Lys(Ac)]-N-dK-[Sarc]-NH2 [Peptide 1]	22.4	>24.0	>24.0	>24.0
Ac-[Abu]-N-T-[W(7-Me)]-Q-[Cys]-Phe[4-(2-aminoethoxy)]-[3Quin]-[THP]-E-N-H-[Sarc]-NH2 [Peptide 94]	>24.0	1.2	9.9	–
Ac-[Abu]-N-T-[W(7-Me)]-[Lys(Ac)]-[Cys]-Phe[4-(2-aminoethoxy)]-[2-Nal]-[THP]-E-N-H-[Sarc]-NH2 [Peptide 99]	10.8	2.3	8.8	–
Ac-[Abu]-N-T-[W(7-Me)]-[Lys(Ac)]-[Cys]-Phe[4-(2-aminoethoxy)]-[2-Nal]-[a-MeLys]-[Lys(Ac)]-N-H-[Sarc]-NH2 [Peptide 97]	6.6	5.1	8	–
Ac-[Abu]-N-T-[W(7-Ph)]-Q-[Cys]-Phe[4-(2-aminoethoxy)]-[2-Nal]-[THP]-E-N-H-[Sarc]-NH2 [Peptide 96]	>24.0	1.5	8.6	–
Ac-[Abu]-N-T-[W(7-Ph)]-Q-[Cys]-Phe[4-(2-aminoethoxy)]-[2-Nal]-[a-MeLys]-[Lys(Ac)]-N-H-[Sarc]-NH2 [Peptide 95]	>24.0	13.3	17.3	>24.0
Ac-[Abu]-N-T-[W(7-Ph)]-Q-[Cys]-Phe[4-(2-aminoethoxy)]-[3Quin]-[THP]-E-N-H-[Sarc]-NH2 [Peptide 93]	>24.0	1.3	8.4	–
Ac-[Abu]-N-T-[W(7-Ph)]-[Lys(Ac)]-[Cys]-Phe[4-(2-aminoethoxy)]-[2-Nal]-[THP]-E-N-H-[Sarc]-NH2 [Peptide 98]	>24.0	6.8	14.1	–
Ac-[Abu]-Q-T-[W(7-Me)]-Q-[Cys]-Phe[4-(2-aminoethoxy)]-[2-Nal]-[a-MeLys]-[Lys(Ac)]-N-[3Pal]-[Sarc]-NH2 [Peptide 110]	15	10.6	20.1	>24.0
Ac-[Abu]-Q-T-[W(7-Me)]-[Cit]-[Cys]-Phe[4-(2-aminoethoxy)]-[2-Nal]-[THP]-E-N-[3Pal]-[Sarc]-NH2 [Peptide 111]	8.5	2	12.8	–
Ac-[Abu]-Q-T-[W(7-Me)]-[Cit]-[Cys]-Phe[4-(2-aminoethoxy)]-[2-Nal]-[a-MeLys]-[Lys(Ac)]-N-[3Pal]-[Sarc]-NH2 [Peptide 112]	10	10.9	17	>24.0
Ac-[Pen]-N-T-[(W(7-(3-pyrazol-1-yl))]-[Lys(Ac)]-[Pen]-Phe[4-(2-aminoethoxy)]-[2-Nal]-[THP]-E-N-[3Pal]-[Sarc]-NH2 [Peptide 151]	>24.0	>24.0	>24.0	–
Ac-[Pen]-N-T-[(W(7-(5-Et)]-[Lys(Ac)]-[Pen]-Phe[4-(2-aminoethoxy)]-[2-Nal]-[THP]-E-N-[3Pal]-[Sarc]-NH2 [Peptide 149]	>24.0	>24.0	>24.0	–
Ac-[Pen]-N-T-[W(7-(2-OMePh)]-[Lys(Ac)]-[Pen]-Phe[4-(2-aminoethoxy)]-[2-Nal]-[a-MeLys]-[Lys(Ac)]-N-H-[Sarc]-NH2 [Peptide 49]	23.8	>24.0	>24.0	>24.0
Ac-[Pen]-N-T-[W(7-(4-Anthracen-5-yl))]-[Lys(Ac)]-[Pen]-Phe[4-(2-aminoethoxy)]-[2-Nal]-[THP]-E-N-H-[Sarc]-NH2 [Peptide 70]	>24.0	>24.0	>24.0	>24.0
Ac-[Pen]-N-T-[W(7-(4Quin))]-[Lys(Ac)]-[Pen]-Phe[4-(2-aminoethoxy)]-[2-Nal]-[THP]-E-N-[3Pal]-[Sarc]-NH2 [Peptide 147]	>24.0	>24.0	>24.0	–
Ac-[Pen]-N-T-[W(7-Me)]-[Lys(Ac)]-[Pen]-Phe[4-(2-aminoethoxy)]-[2-Nal]-[THP]-E-N-[ 7-Aza-tryptophan]-[Sarc]-NH2 [Peptide 119]	19.6	–	–	>24.0
Ac-[Pen]-N-T-[W(7-Me)]-[Lys(Ac)]-[Pen]-Phe[4-(2-aminoethoxy)]-[2-Nal]-[THP]-E-N-[(D)Leu]-[Sarc]-NH2 [Peptide 24]	>24.0	>24.0	>24.0	1
Ac-[Pen]-N-T-[W(7-Me)]-[Lys(Ac)]-[Pen]-Phe[4-(2-aminoethoxy)]-[2-Nal]-[THP]-[Lys(Ac)]-N-H-[Sarc]-NH2 [Peptide 81]	11.9	17.5	18.3	>24.0
Ac-[Pen]-N-T-[W(7-Me)]-[Lys(Ac)]-[Pen]-Phe[4-(2-aminoethoxy)]-[2-Nal]-[a-MeLys]-[Lys(Ac)]-N-[(D)Leu]-[Sarc]-NH2 [Peptide 25]	>24.0	>24.0	>24.0	>24.0
Ac-[Pen]-N-T-[W(7-Ph)]-Q-[Pen]-Phe[4-(2-aminoethoxy)]-[2-Nal]-[THP]-E-N-[3Pal]-[Sarc]-NH2 [Peptide 127]	>24.0	–	–	>24.0
Ac-[Pen]-N-T-[W(7-indazol-5-yl)]-[Lys(Ac)]-[Pen]-Phe[4-(2-aminoethoxy)]-[2-Nal]-[THP]-E-N-[3Pal]-[Sarc]-NH2 [Peptide 152]	>24.0	>24.0	>24.0	–
